Experiments:
[1] = tested on: Human pancreas a-chymotrypsin; assay: Chymotrypsin activity inhibition, chromogenic substrate S-7388; format: biochemical; details: read-out: Chymotrypsin Inhibition; 250 uM S-7388, 10 min pre-incubation, RT
Human Factor XIa = Human Factor XIa (Homo sapiens, UniProt P03951); assay: Factor XIa activity inhibition, chromogenic substrate S-2366; details: read-out: Factor XIa Inhibition; S-2366, 10 min pre-incubation, RT

Amino acid sequences for entries named in this document (tags omitted). Residues count along the entry.
UniProt P03951, 388-625 limits assumed: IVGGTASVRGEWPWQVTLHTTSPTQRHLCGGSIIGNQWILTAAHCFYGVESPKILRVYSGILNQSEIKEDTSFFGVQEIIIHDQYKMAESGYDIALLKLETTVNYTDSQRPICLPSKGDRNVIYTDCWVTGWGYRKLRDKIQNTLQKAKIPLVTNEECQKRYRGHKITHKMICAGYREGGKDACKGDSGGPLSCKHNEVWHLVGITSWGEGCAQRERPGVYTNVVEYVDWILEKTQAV
UniProt P03951, 19-387 partner limits assumed: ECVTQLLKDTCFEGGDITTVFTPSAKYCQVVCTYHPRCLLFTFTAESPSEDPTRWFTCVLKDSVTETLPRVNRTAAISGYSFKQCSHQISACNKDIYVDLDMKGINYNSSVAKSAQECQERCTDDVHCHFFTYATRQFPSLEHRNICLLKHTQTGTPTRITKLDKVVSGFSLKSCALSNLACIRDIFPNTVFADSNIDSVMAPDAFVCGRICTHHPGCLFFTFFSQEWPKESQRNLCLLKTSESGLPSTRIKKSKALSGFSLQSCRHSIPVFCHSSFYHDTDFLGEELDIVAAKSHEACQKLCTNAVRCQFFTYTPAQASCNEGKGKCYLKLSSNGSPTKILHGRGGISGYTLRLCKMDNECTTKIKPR

Row | SMILES | IC50 [1] [µM] | IC50 (Human Factor XIa) [µM]
1 | CC(C)(C)C(=O)n1nc(C2CCN(CC(F)(F)F)CC2)cc1NCc1ccc(Cl)s1 | > 100 | > 100
2 | CC(C)(CO)C(=O)n1nc(C2CCNCC2)cc1NCc1ccc(Cl)s1 | 1 to 10 | 10 to 100
3 | COCC(C)(C)C(=O)n1nc(C2CCNCC2)cc1NCc1ccc(Cl)s1 | > 100 | 10 to 100
4 | CC(C)(C)C(=O)n1nc(C2CCNCC2)cc1NCc1ccc(Cl)s1 | 10 to 100 | 10 to 100

Now from value to compound:

Row | IC50 [1] [µM] | IC50 (Human Factor XIa) [µM] | SMILES
5 | > 100 | > 100 | CC(C)(C)OC(=O)N1CCC(c2cc(NCc3ccc(Cl)s3)n(C(=O)C(C)(C)C)n2)CC1 [Entry 292, tert-butyl 4-(5-[(5-chlorothiophen-2-yl)methyl]amino-1-(2,2-dimethylpropanoyl)-1H-pyrazol-3-yl)piperidine-1-carboxylate]
6 | 10 to 100 | > 100 | CC(C)(C)OC(=O)N1CCC(C)(c2cc(NCc3ccc(Cl)s3)n(C(=O)C(C)(C)C)n2)CC1 [Entry 291, tert-butyl 4-(5-[(5-chlorothiophen-2-yl)methyl]amino-1-(2,2-dimethylpropanoyl)-1H-pyrazol-3-yl)-4-methylpiperidine-1-carboxylate]
